From patent US6664231B1, “Anti-fungal peptides” (priority 1993, dated 2003)

Columns and labels:
Type in all cases: cell-based
Candida glabrata = assay: Radial diffusion assay, Candida species (Table 2)
Description: (§1) The anti-fungal activity of Domain III derived peptides was also evaluated in vitro against a variety of fungal species, including Candida glabrata, Candida krusei, Candida lusitaniae, Candida parapsilosis, and Candida tropicalis. For these experiments, one colony of each of the above-listed Candida strains was picked from a Sabouraud's dextrose agar (SDA) plate and inoculated into 5 mL of Sabouraud's dextrose broth (SDB, 2% dextrose and 1% neopeptone) or, for C. krusei, Yeast Malt broth (YM, Becton Dickenson, Cockeysville, Md., cat no. BL 11405) in 12 mL polyproplyene snap-cap tubes. The tube cultures were incubated overnight with shaking at 37° C.
(§2) Cultures were harvested when the OD570 of a 1:10 dilution was greater than or equal to the following values: 0.083 for Candida glabrata, 0.154 for Candida krusei, 0.117 for Candida lusitaniae, 0.076 for Candida parapsilosis, and 0.192 for Candida tropicalis. Cells were centrifuged for 7 minutes in an Eppendorf microfuge at 3,000 rpm (about 1,500 g). The cell pellet was resuspended in 1 mL PBS and approximately 1×10^7 cells in about 0.5 mL were added to 10 mL of cooled underlay agar (3% SBD, 1% agarose, 0.02% Tween 20, 10 mM sodium phosphate buffer, pH 7.4 at about 45° C.). The suspension was poured into square petri plates, allowed to solidify, and wells cut as described above.
(§3) Peptides were two-fold serially diluted with D-PBS from about 20 μL of a starting concentration of approximately 1 mg/mL. Five μL of peptide dilution were added per well and allowed to diffuse for at least about 30 minutes into the agar at […] (to allow complete diffusion). Then 10 mL of molten overlayer agarose (6% SDB, 1% agarose, 10 mM sodium phosphate buffer, pH 7.4 at about 45° C.) were added and the plates were incubated inverted at […] overnight. Plates were stained with a dilute Coomassie solution, inhibition zones were measured with calipers and net areas were calculated, then converted to pmole values by PROBIT analysis.

Candida krusei = assay: Radial diffusion assay, Candida species (Table 2)
Description: as §1, §2, §3

Candida lusitaniae = assay: Radial diffusion assay, Candida species (Table 2)
Description: as §1, §2, §3

Candida parapsilosis = assay: Radial diffusion assay, Candida species (Table 2)
Description: as §1, §2, §3

Candida tropicalis = assay: Radial diffusion assay, Candida species (Table 2)
Description: as §1, §2, §3

Aspergillus ATCC 13073 = test system: Aspergillus ATCC 13073
Description: (§4) The anti-fungal activity of Domain III derived peptides was evaluated against a variety of fungal species, including species of Candida. Cryptococcus, Fusarium, Trichophyton, and Aspergillus, by an additional assay protocol utilizing Alamar Blue. Alamar Blue is an indicator dye formulated to measure quantitatively the proliferation of a variety of human or animal cells, bacteria, or fungi. It consists of an oxidation-reduction (REDOX) indicator that yields a colorimetric change in response to metabolic activity. For these experiments, species of Candida and Cryptococcus were grown in Sabouraud's dextrose broth (SDB) overnight. Strains of filamentous fungi (Aspergilius, Fusanum, Trichophyton) were obtained by irrigation of a confluent culture from a petri dish. Cells were washed and adjusted to a concentration of 5.0×10^3/mL in fresh SDB. […] Controls included amphotericin B, fluconazole, ketoconazole and griseofulvin. Antifungal drugs were also diluted in the same manner. Assays were performed in 96-well microuiter plates. […] The wells to be plated were determined by OD590 readings. The lowest concentration of peptide which maintained the blue color (or OD reading) of the blank was chosen along with the next two higher concentrations. Plates were allowed to grow for 18-48 hours depending on the rate of growth of each fungus. Minimal fungicidal activity (MFC) was determined as a 99.9% killing of the starting inoculum.

[1] = test system: Aspergillus niger ATCC 16404
Description: as §4

[2] = test system: Candida albicans (SLU-1 and ATCC strains)
Description: as §4

[3] = test system: Candida glabrata ATCC 2001
Description: as §4

[4] = test system: Candida parapsilosis ATCC 22019
Description: as §4

[5] = test system: Cryptococcus neoformans ATCC 13690
Description: as §4

[6] = test system: Fusarium solani ATCC 36031
Description: as §4

[7] = test system: Trychophyton rubrum ATCC 28188
Description: as §4

Candida parasilosis = test system: Candida parasilosis
Description: In additional experiments, a fluorescence-activated cell sorter (FACS) based assay was developed to test the fungicidal activity of the peptides. […] Difco) agar. Several colonies were picked from the agar plate and inoculated into 5 mL of Sabouraud's Dextrose media in a sterile 10 mL polypropylene tube. The fungal cultures were incubated for about 18 hours at 30° C. […] The culture were centrifuged at 3000 rpm for 5 minutes (Sorvall RT 6000B). After centrifugation, the supernatant was decanted leaving the fungal pellets in the centrifuge tubes. The pellets were resuspended in 15 mL of SDB. Both suspensions were combined into one tube and mixed to generate a stock culture. […] After determining the concentration of the stock, appropriate dilutions were made with Sabouraud's Dextrose media to obtain 100 mL of 1×10^6 cell/mL. […] After the 1 hour incubation, all the tubes were centrifuged at 3000 rpm for 5 minutes. […] Louis, Mo.) in Dulbecco's PBS (DPBS, GIBCO, Grand Island, N.Y.) except the autofluorescence control, which was resuspended in DPBS alone. The tubes were mixed and incubated in the dark at room temperature for at least 20 minutes. […] The settings were adjusted appropriately to the following approximate parameters: Cells were analyzed (10,000 cells/tube) and their respective fluorescence determined. […] The population of dead (i.e., propidium iodide stained) fungal cells was determined by a fluorescence threshold between the negative control and positive control.

Row | Structure (SMILES) | Anti-fungal activity: pmol/30 mm^2 zone, Candida glabrata (Candida glabrata) | Anti-fungal activity: pmol/30 mm^2 zone, Candida krusei (Candida krusei) | Anti-fungal activity: pmol/30 mm^2 zone, Candida lusitaniae (Candida lusitaniae) | Anti-fungal activity: pmol/30 mm^2 zone, Candida parapsilosis (Candida parapsilosis) | Anti-fungal activity: pmol/30 mm^2 zone, Candida tropicalis (Candida tropicalis) | Minimum Fungicidal Concentration, Aspergillus ATCC 13073 (Aspergillus ATCC 13073) [µg/mL] | Minimum Fungicidal Concentration, Aspergillus niger ATCC 16404 [1] [µg/mL] | Minimum Fungicidal Concentration, Candida albicans ATCC 10231 [2] [µg/mL] | Minimum Fungicidal Concentration, Candida albicans ATCC 18840 [2] [µg/mL] | Minimum Fungicidal Concentration, Candida albicans ATCC 26555 [2] [µg/mL] | Minimum Fungicidal Concentration, Candida albicans ATCC 44808 [2] [µg/mL] | Minimum Fungicidal Concentration, Candida albicans ATCC 90028 [2] [µg/mL] | Minimum Fungicidal Concentration, Candida albicans SLU-1 [2] [µg/mL] | Minimum Fungicidal Concentration, Candida glabrata ATCC 2001 [3] [µg/mL] | Minimum Fungicidal Concentration, Candida parapsilosis ATCC 22019 [4] [µg/mL] | Minimum Fungicidal Concentration, Cryptococcus neoformans ATCC 13690 [5] [µg/mL] | Minimum Fungicidal Concentration, Fusarium solani ATCC 36031 [6] [µg/mL] | Minimum Fungicidal Concentration, Trychophyton rubrum ATCC 28188 [7] [µg/mL] | Candida parasilosis IC50 (Candida parasilosis) [µg/mL]
1 | CC[C@H](C)[C@H](NC(=O)[C@H](CC(C)C)NC(=O)[C@H](Cc1c[nH]c2ccccc12)NC(=O)[C@H](CCCCN)NC(=O)[C@@H](NC(=O)[C@H](CCCCN)NC(=O)[C@H](CO)NC(=O)[C@@H](N)CCCCN)C(C)C)C(=O)N[C@@H](CCC(N)=O)C(=O)N[C@@H](CC(C)C)C(=O)N[C@@H](Cc1ccccc1)C(=O)N[C@@H](Cc1c[nH]cn1)C(=O)N[C@@H](CCCCN)C(=O)N[C@@H](CCCCN)C(N)=O [XMP.97] | 1,786 pmol/30 mm^2 zone | 907 pmol/30 mm^2 zone | 900 pmol/30 mm^2 zone | 868 pmol/30 mm^2 zone | 193 pmol/30 mm^2 zone | – | – | – | – | – | – | – | – | – | – | – | – | – | –
2 | CC[C@H](C)[C@H](NC(=O)[C@H](CC(C)C)NC(=O)[C@H](Cc1ccccc1)NC(=O)CNC(=O)[C@@H](NC(=O)[C@H](CCCCN)NC(=O)[C@H](CO)NC(=O)[C@@H](N)CCCCN)C(C)C)C(=O)N[C@@H](CCC(N)=O)C(=O)N[C@@H](CC(C)C)C(=O)N[C@@H](Cc1ccccc1)C(=O)N[C@@H](Cc1c[nH]cn1)C(=O)N[C@@H](CCCCN)C(=O)N[C@@H](CCCCN)C(N)=O [XMP.127] | 779 pmol/30 mm^2 zone | 878 pmol/30 mm^2 zone | 551 pmol/30 mm^2 zone | 711 pmol/30 mm^2 zone | 373 pmol/30 mm^2 zone | – | – | – | – | – | – | – | – | – | – | – | – | – | –
3 | CC[C@H](C)[C@H](NC(=O)[C@H](CC(C)C)NC(=O)[C@H](Cc1c[nH]c2ccccc12)NC(=O)[C@H](CCCCN)NC(=O)[C@@H](N)CCCCN)C(=O)N[C@@H](CCC(N)=O)C(=O)N[C@@H](CC(C)C)C(=O)N[C@@H](CCCCN)C(=O)N[C@@H](CCCCN)C(N)=O [XMP.327] | >6,295 pmol/30 mm^2 zone | 3,327 pmol/30 mm^2 zone | 120 pmol/30 mm^2 zone | 119 pmol/30 mm^2 zone | 2,598 pmol/30 mm^2 zone | – | – | – | – | – | – | – | – | – | – | – | – | – | –
4 | CC[C@H](C)[C@H](NC(=O)[C@H](CC(C)C)NC(=O)[C@H](Cc1c[nH]c2ccccc12)NC(=O)[C@H](CCCCN)NC(=O)[C@H](CCCCN)NC(C)=O)C(=O)N[C@@H](CCC(N)=O)C(=O)N[C@@H](CC(C)C)C(=O)N[C@@H](CCCCN)C(=O)N[C@@H](CCCCN)C(N)=O [XMP.331] | b (No detectable activity up to 5 μg/well) | >5,467 pmol/30 mm^2 zone | 1,500 pmol/30 mm^2 zone | 1,451 pmol/30 mm^2 zone | b (No detectable activity up to 5 μg/well) | – | – | – | – | – | – | – | – | – | – | – | – | – | –
5 | CC[C@H](C)[C@H](NC(=O)[C@H](CC(C)C)NC(=O)[C@H](Cc1c[nH]c2ccccc12)NC(=O)[C@@H](CCCCN)NC(=O)[C@H](N)CCCCN)C(=O)N[C@@H](CCC(N)=O)C(=O)N[C@@H](CC(C)C)C(=O)N[C@H](CCCCN)C(=O)N[C@H](CCCCN)C(N)=O [XMP.342] | – | – | – | – | – | 25.00 | 10.00 | 10.0 | 5.0 | 2.5 | 5.0 | 5.0 | 5.00 | >10.0 | >10.0 | 1.25 | 1.25 | 10.0 | –
6 | CC[C@@H](C)[C@@H](NC(=O)[C@@H](CC(C)C)NC(=O)[C@@H](Cc1c[nH]c2ccccc12)NC(=O)[C@H](N)CCCCN)C(=O)N[C@H](CCC(N)=O)C(=O)N[C@H](CC(C)C)C(=O)N[C@H](Cc1ccccc1)C(=O)N[C@H](Cc1c[nH]cn1)C(=O)N[C@H](CCCCN)C(=O)N[C@H](CCCCN)C(N)=O [XMP.365] | – | – | – | – | – | 25.00 | 5.00 | 5.0 | 5.0 | 1.25 | 5.0 | 5.0 | 2.5 | >10.0 | 10.0 | 1.25 | 0.16 | 10.0 | 7.72
7 | CC[C@@H](C)[C@@H](NC(=O)[C@@H](CC(C)C)NC(=O)[C@@H](Cc1c[nH]c2ccccc12)NC(=O)[C@@H](CCCCN)NC(C)=O)C(=O)N[C@H](CCC(N)=O)C(=O)N[C@H](CC(C)C)C(=O)N[C@H](Cc1ccccc1)C(=O)N[C@H](Cc1c[nH]cn1)C(=O)N[C@H](CCCCN)C(=O)N[C@H](CCCCN)C(N)=O [XMP.366] | – | – | – | – | – | 50.00 | >10.00 | 10.0 | >10.0 | 10.0 | >10.0 | 10.0 | 10.0 | >10.0 | >10.0 | 1.25 | 10.0 | >10.0 | –
